“And” between values parts separate entries of the source, which are not always exact repeats. Identical values can stand only once.
Molecular target: eIF4E (Homo sapiens, UniProt P06730)
Experiment: biochemical

Amino acid sequences for entries named in this document (tags omitted). Residues count along the entry.
UniProt P06730, 32-217: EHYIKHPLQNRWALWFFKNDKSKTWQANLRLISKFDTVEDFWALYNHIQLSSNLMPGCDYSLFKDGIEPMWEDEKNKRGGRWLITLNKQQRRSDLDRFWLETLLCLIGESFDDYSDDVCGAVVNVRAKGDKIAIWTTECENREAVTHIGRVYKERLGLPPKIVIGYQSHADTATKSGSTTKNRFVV

Kd: 6.8 µM and 7 µM
SMILES: C[n+]1cn([C@@H]2O[C@H](COP(=O)(O)OP(=O)([O-])OP(=O)(O)OC[C@H]3O[C@@H](n4cnc5c(=O)[nH]c(N)nc54)[C@H](O)[C@@H]3O)[C@@H](O)[C@@H]2O)c2nc(N)[nH]c(=O)c21 [Compound 005-11]

— US20190225644A1, “MRNA CAP ANALOGS AND METHODS OF MRNA CAPPING” (ModernaTX, Inc., priority 2015, published 2019)
